Experimental data: patent US12662479B2 (Foghorn Therapeutics Inc., priority 2020, dated 2026)

The chains behind the UniProt entries cited, without tags or fusion partners.
UniProt P51532, whole entry: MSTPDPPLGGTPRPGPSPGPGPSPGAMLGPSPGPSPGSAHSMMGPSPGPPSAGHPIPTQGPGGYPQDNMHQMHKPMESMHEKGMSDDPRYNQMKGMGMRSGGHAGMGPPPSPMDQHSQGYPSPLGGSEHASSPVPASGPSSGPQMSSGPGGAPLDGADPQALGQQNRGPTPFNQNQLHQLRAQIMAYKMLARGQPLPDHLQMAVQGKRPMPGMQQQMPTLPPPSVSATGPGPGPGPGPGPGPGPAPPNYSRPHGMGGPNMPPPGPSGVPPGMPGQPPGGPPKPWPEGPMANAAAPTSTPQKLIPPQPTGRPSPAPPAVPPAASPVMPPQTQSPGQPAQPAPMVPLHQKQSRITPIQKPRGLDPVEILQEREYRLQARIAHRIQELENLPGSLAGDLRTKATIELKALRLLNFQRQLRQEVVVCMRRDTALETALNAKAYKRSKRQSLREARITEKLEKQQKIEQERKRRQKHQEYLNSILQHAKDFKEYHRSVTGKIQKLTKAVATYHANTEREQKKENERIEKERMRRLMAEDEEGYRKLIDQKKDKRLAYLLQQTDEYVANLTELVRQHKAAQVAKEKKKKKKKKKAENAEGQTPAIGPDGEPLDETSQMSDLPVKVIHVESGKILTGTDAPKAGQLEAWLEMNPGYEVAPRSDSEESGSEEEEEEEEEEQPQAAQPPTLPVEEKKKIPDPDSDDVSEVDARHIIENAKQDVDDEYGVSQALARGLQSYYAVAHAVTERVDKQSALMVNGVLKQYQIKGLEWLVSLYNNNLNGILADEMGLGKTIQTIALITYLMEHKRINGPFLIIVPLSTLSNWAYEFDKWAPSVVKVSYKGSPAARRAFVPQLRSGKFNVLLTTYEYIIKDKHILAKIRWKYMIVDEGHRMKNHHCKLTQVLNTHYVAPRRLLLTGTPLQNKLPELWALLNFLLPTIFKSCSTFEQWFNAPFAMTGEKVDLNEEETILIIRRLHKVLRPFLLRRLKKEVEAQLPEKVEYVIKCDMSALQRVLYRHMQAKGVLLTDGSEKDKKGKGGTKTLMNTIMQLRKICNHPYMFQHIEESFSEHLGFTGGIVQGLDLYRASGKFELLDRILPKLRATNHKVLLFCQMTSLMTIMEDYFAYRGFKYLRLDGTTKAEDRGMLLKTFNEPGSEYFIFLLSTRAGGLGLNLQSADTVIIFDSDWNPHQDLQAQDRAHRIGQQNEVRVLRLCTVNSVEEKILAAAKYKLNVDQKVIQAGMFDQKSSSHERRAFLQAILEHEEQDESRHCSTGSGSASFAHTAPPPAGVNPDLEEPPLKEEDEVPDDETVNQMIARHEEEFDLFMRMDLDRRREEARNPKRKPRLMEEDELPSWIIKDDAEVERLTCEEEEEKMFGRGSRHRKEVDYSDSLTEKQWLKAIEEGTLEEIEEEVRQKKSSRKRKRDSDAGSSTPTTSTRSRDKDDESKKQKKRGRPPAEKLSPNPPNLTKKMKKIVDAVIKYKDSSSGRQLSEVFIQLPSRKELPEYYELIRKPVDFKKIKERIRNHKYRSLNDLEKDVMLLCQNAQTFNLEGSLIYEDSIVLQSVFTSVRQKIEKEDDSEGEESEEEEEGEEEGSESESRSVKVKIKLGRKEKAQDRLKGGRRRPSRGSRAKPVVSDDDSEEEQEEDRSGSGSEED
UniProt P51531, whole entry: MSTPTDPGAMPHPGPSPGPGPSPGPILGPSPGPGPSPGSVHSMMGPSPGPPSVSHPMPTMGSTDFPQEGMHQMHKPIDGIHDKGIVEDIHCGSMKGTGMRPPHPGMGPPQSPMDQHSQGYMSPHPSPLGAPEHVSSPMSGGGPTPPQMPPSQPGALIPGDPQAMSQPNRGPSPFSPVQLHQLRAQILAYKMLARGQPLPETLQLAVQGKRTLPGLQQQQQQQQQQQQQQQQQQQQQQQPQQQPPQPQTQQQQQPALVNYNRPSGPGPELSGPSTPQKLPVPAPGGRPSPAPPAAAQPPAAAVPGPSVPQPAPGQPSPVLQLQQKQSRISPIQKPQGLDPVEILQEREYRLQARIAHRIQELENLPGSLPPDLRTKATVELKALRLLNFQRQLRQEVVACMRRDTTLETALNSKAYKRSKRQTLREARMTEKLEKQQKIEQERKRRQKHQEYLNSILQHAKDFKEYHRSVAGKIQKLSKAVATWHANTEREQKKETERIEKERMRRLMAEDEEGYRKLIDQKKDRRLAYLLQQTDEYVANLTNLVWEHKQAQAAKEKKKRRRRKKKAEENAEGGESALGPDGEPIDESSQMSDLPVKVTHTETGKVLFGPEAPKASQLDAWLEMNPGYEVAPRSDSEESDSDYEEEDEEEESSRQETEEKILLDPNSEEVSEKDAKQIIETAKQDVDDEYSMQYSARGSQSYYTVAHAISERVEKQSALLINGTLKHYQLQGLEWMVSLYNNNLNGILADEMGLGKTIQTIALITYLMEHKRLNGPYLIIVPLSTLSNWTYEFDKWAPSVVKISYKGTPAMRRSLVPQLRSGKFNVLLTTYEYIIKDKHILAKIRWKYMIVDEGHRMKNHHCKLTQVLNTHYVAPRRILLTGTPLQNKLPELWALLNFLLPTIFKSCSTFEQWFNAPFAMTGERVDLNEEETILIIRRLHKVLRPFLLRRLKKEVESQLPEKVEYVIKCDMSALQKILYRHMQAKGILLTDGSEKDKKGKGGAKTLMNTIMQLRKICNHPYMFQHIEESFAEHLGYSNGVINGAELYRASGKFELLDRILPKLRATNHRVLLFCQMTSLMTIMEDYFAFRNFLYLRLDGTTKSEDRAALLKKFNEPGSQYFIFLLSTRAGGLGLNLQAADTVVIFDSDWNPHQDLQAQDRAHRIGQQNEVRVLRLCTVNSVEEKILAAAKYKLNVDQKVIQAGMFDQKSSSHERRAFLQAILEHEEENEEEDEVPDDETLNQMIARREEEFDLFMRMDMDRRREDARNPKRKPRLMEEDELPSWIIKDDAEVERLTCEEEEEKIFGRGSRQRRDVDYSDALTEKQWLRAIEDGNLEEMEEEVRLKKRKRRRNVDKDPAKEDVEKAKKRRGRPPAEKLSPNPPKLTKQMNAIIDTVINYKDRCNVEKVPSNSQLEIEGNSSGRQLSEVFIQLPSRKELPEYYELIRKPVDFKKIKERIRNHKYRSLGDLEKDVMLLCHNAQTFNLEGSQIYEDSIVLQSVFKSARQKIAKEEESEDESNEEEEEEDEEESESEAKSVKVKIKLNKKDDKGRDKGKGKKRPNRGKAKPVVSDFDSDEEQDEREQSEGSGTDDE

Assays:
[1] = molecular target: HiBit-BRG1 fusion protein (Homo sapiens, UniProt P51532); test: HiBiT-BRG1 cell-based degradation assay (Nano-Glo HiBiT Lytic Detection, 24 h)
HiBit-BRM fusion protein = HiBit-BRM fusion protein (Homo sapiens, UniProt P51531); test: HiBiT-BRM cell-based degradation assay (Nano-Glo HiBiT Lytic Detection, 24 h)
Experimental: Procedure: A stable HeLa cell line expressing HiBiT-BRM was generated. On day 0, 5000 cells were seeded in 40 μL of media into each well of 384-well cell culture plates. On day 1, cells were treated with 120 nL DMSO or 120 nL of 3-fold serially DMSO-diluted compounds (10 points in duplicate with 30 μM as final top dose). Subsequently plates were incubated for 24 h in a standard tissue culture incubator and equilibrated at room temperature for 15 minutes. Nano-Glo HiBiT Lytic Detection System (Promega N3050) reagent was freshly prepared and 20 ul was added to each well. Upon addition of this LgBit-containing reagent, the HiBiT and LgBiT proteins associate to form the luminescent NanoBiT luciferase. The plates were shaken for 10 minutes at room temperature and the bioluminescence read using an EnVision plate reader (PerkinElmer).
The degradation % was calculated using the following formula: % degradation=100%−100%×(LumSample−LumLC)/(LumHC−LumLC). DMSO treated cells are employed as High Control (HC) and 2 μM of a known BRM/BRG1 degrader standard treated cells are employed as Low Control (LC).

IC50 ([1]; read-out: BRG1 HiBit Degradation IC50, HeLa cells expressing HiBit-BRG1 and LgBit): 100 to 1000 nM
BRM HiBit Degradation Maximum measured (HiBit-BRM fusion protein; HeLa cells expressing HiBiT-BRM, top dose 30 μM): C (‘C’ = Maximum degradation <50%)
IC50 (HiBit-BRM fusion protein; read-out: BRM HiBit Degradation IC50, HeLa cells expressing HiBiT-BRM): > 10 µM
Compound: Cc1c(C(=O)NCC(=O)Nc2nc(-c3cccc(-c4ccnc(C5(C(=O)NCCCCCCCCNc6ccc7c(c6)C(=O)N(C6CCC(=O)NC6=O)C7=O)CC5)c4)c3)cs2)cn(S(C)(=O)=O)c1C (stereo not shown)
BRG1 HiBit Degradation Maximum measured ([1]; HeLa cells expressing HiBit-BRG1 and LgBit, top dose 30 μM): B (‘B’ = Maximum degradation ≥50% and ≤75%)
